Measurements reported in PubChem BioAssay AID720551 (National Center for Advancing Translational Sciences (NCATS), 2013).
Only a part is listed here, and it is no random draw. The source made the active and inactive calls.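 The calls were made as follows: active = maximum activity change below -70%; inconclusive = maximum activity change between -70% and -50%; inactive = maximum activity change above -50%.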

By UniProt entry, the sequences of proteins in these tests, tags left out.
UniProt Q12809, whole entry: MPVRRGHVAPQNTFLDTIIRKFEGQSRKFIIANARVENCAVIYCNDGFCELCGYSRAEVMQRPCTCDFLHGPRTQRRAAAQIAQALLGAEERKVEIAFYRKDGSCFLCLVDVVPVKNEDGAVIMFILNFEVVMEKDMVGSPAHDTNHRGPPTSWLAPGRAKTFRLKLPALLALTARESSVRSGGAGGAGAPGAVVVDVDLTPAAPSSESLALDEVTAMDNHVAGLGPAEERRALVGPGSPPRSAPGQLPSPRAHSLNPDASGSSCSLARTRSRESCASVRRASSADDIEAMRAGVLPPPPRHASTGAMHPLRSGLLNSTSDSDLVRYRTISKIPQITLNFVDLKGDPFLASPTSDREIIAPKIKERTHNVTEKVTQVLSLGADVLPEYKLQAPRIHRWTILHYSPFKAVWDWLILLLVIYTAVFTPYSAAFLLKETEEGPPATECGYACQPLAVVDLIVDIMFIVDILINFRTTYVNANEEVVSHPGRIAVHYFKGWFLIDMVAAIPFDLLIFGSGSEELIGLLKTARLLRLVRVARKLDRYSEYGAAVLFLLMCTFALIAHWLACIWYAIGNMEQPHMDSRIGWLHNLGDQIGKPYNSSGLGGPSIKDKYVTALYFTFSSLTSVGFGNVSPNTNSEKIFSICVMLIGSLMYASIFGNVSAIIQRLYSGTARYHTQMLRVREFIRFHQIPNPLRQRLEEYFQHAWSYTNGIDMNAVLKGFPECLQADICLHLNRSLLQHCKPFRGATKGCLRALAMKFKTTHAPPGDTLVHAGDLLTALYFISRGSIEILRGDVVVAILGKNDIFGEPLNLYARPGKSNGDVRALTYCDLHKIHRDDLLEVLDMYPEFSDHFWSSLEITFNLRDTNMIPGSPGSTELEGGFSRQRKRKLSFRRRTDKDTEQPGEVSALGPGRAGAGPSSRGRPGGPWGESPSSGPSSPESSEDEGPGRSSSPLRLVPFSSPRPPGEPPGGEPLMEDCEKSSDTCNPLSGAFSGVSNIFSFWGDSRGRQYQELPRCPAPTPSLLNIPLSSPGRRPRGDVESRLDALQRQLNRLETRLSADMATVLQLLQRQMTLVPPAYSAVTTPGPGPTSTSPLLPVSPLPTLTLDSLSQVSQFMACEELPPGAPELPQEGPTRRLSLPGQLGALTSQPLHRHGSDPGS

molecular target: Voltage-gated inwardly rectifying potassium channel KCNH2 (Homo sapiens) (UniProt Q12809); assay: qHTS for Inhibitors of KCHN2 3.1: Wildtype qHTS; details: U2OS, BacMam KCNH2, thallium flux FluxOr; at 1.84 µM; active compounds read low
Excerpt: Many antipsychotic drugs that inhibit the neurotransmitter dopamine also bind to hERG1 channel which might help explain their antipsychotic activity but also produces cardiac side effects. The discovery of the novel KCNH2 3.1 isoform offers a potential new target for the development of antipsychotic drugs without cardiac side effects. This proposal will use a high throughput thallium flux assay developed for KCNH2 to screen compounds that modulate the activity of KCNH2 3.1. The wild type KCNH2 channel will also be screened in parallel to help define the selective modulators of this KCNH2 3.1 potassium channel. The resulting compounds will be validated in electrophysiology experiments. The availability of animal models will allow future testing in vivo for effects on memory and other aspects of animal physiology linked with psychosis. NIH Chemical Genomics Center [NCGC] NIH Molecular Libraries Probe Centers Network [MLPCN] MLPCN Grant: MH096539 Assay Submitter (PI): James Barrow, Johns Hopkins University, Lieber Institute for Brain Development
U2OS cells were resuspended in cell media containing 10% fetal calf serum (FCS) at a concentration of 2 million cells / mL. The solution was treated with the Wild-type virus at 2.03 x 10^8 / mL and allowed to incubate at room temperature in the dark. After 4 hours of incubation, DMEM + 10% fetal bovine serum (FBS) was added to the cell solution. Three microliter was then dispensed into a 1536 tissue culture treated black assay plates which were incubated overnight at 37 C. Two microliter of loading buffer (HBSS + HEPES + Red40 dye quencher + FluxOr dye) was added and the assay plates were incubated for 45 min at room temperature in the dark. […] A stimulation buffer was added to the plate and the second kinetic read (2 min) was obtained. The rate constant was calculated from the kinetic reads and normalized to the positive and negative DMSO controls.
% is scaled to controls: 0 for no effect and ±100 for the full control effect.

Compound	activity change
O=C(OCCN1CCN(CCOCc2ccccc2)CC1)C(O)(c1ccccc1)c1ccccc1	inactive: 37.6%
CP(=O)(Nc1ccccc1F)Oc1ccccc1 (stereo not given)	inactive: 4.42%
CC(C)c1ccc(OP(C)(=O)Nc2ccc(SC(F)(F)F)cc2)cc1 (stereo not given)	inactive: 13.5%
Cc1c([N+](=O)[O-])cc([N+](=O)[O-])c(Br)c1[N+](=O)[O-]	inactive: 3.98%
CCN(CC)CCCOC(=O)C(O)(c1ccccc1)C1CCCCC1 (stereo not given)	inactive: 0.3%
CP(=O)(Nc1ccccc1)Oc1ccc(F)cc1 (stereo not given)	inactive: 7.27%
CCCCCOc1ccc(NP(C)(=O)Oc2ccc(Cl)cc2Cl)cc1 (stereo not given)	inactive: 2.76%
CCOC(=O)c1ccc(NP(C)(=O)Oc2ccc(F)cc2)cc1 (stereo not given)	inactive: -9.47%
COc1ccc(OP(C)(=O)Nc2ccc(SC(F)(F)F)cc2)cc1 (stereo not given)	inactive: -4.83%
O=[N+]([O-])c1ccc(OP2(=O)COCCO2)cc1 (stereo not given)	inactive: -3.88%
Cc1cc(-c2cccc3ccccc23)c(C)cn1.O=[N+]([O-])c1cc([N+](=O)[O-])c(O)c([N+](=O)[O-])c1	inactive: -16.3%
Cc1c(C(c2ccc3c(c2)OCO3)c2c(C)n(C)n(-c3ccccc3)c2=O)c(=O)n(-c2ccccc2)n1C.O=[N+]([O-])c1cc([N+](=O)[O-])c(O)c([N+](=O)[O-])c1	inactive: 5.48%
COc1ccc(OP(C)(=O)Nc2cccc(Br)c2)cc1 (stereo not given)	inactive: 0.921%
CN(C)CCOC(=O)C(O)(c1ccccc1)C1CCCCC1 (stereo not given)	inactive: 5.98%
COc1ccc(NP(C)(=O)Oc2ccccc2OC)cc1 (stereo not given)	inactive: 0.13%
CP(=O)(Nc1ccc2c(c1)OCCO2)Oc1ccccc1 (stereo not given)	inactive: 5.81%
Cc1ccccc1NP(C)(=O)Nc1ccccc1C	inactive: 1.21%
CP(=O)(Nc1ccc(SC(F)(F)F)cc1)Oc1ccc(F)cc1 (stereo not given)	inactive: -0.353%
CCOP(C)(=S)SCC(=O)NC(C)(CC)C(=O)O (stereo not given)	inactive: -3.53%
COc1ccccc1OP(C)(=O)Nc1ccccc1Br (stereo not given)	inactive: 2.53%
CC(C)(C)c1ccc(OP(C)(=O)O)cc1	inactive: -2.85%
CP(=O)(Nc1ccc(Cl)cc1)Oc1ccc(F)cc1 (stereo not given)	inactive: -0.755%

Compound	activity change
CCN(CC)CC(O)COC(=O)C(O)(c1ccccc1)C1CCCCC1 (stereo not given)	inactive: 1.11%
COc1ccc(OP(C)(=O)Nc2ccc(Br)cc2)cc1 (stereo not given)	inactive: 6.5%
COc1ccccc1OP(C)(=O)Nc1c(C)n(C)n(-c2ccccc2)c1=O (stereo not given)	inactive: 19.4%
O=C(OCCCN1CCCC1)C(O)(c1ccccc1)C1CCCCC1 (stereo not given)	inactive: 5.01%
CP(=O)(Oc1ccccc1)N1CCOC1=O (stereo not given)	inactive: 1.9%
CCc1ccc(OP(C)(=O)Nc2cccnc2)cc1 (stereo not given)	inactive: 0.0408%
Nc1ccc2c(ccc3cccnc32)n1.O=[N+]([O-])c1cc([N+](=O)[O-])c(O)c([N+](=O)[O-])c1	inactive: -1.47%
CCOC(=O)c1ccc(NP(C)(=O)Oc2ccc(Cl)cc2)cc1 (stereo not given)	inactive: -2.34%
CP(=O)(OC12CC3CC(CC(C3)C1)C2)OC12CC3CC(CC(C3)C1)C2	inactive: 12.3%
CP(=O)(Nc1ccc(Cl)cc1Cl)Oc1ccccc1 (stereo not given)	inactive: -8.58%
CCCCCCCCCCCCCCCC1C[N+](C)(C)CCOP(C)(=O)O1 (stereo not given)	inactive: -18.2%
CP(=O)(OCCOc1ccccc1)OCCOc1ccccc1	inactive: -12.6%
Cc1cc(C)cc(OP(C)(=O)Nc2cccc(C(F)(F)F)c2)c1 (stereo not given)	inactive: -1.49%
COc1ccccc1OP(C)(=O)Nc1ccc(C)c(C)c1 (stereo not given)	inactive: -5.9%
COc1ccc(OP(C)(=O)Nc2ccccc2Br)cc1 (stereo not given)	inactive: -5.35%
Cc1c(NP(C)(=O)Oc2ccc(C(C)C)cc2)c(=O)n(-c2ccccc2)n1C (stereo not given)	inactive: -3.54%
O=[N+]([O-])c1cc([N+](=O)[O-])c(Nc2ccccn2)c([N+](=O)[O-])c1	inactive: 1.13%
CP(=O)(Nc1ccccn1)Oc1ccccc1 (stereo not given)	inactive: 0.551%
COc1ccccc1OP(C)(=O)Nc1ccc(C)cc1C (stereo not given)	inactive: 5.75%
CCc1ccc(OP(C)(=O)O)cc1	inactive: 7.27%
COc1ccccc1OP(C)(=O)Nc1ccc(Br)cc1 (stereo not given)	inactive: -8.31%
COc1ccc(OP(C)(=O)Nc2ccccn2)cc1 (stereo not given)	inactive: 4.9%

Compound	activity change
CN(C)CCOC(=O)C(O)(c1ccccc1)C1CCCC1 (stereo not given)	inactive: -18.4%
CCN(CC)CCCOC(=O)C(O)(c1ccccc1)c1ccccc1	inactive: -16.6%
COc1ccccc1OP(C)(=O)Nc1ccc(C)cc1 (stereo not given)	inactive: -2.56%
Cc1ccc(NP(C)(=O)Oc2ccccc2)c(C)c1 (stereo not given)	inactive: -5.2%
CCOC(=O)c1ccc(NP(C)(=O)Oc2ccccc2)cc1 (stereo not given)	inactive: 3.37%
Cc1cc(C)cc(OP(C)(N)=O)c1 (stereo not given)	inactive: 3.48%
COc1ccccc1OP(C)(=O)Nc1cc(Cl)ccc1C (stereo not given)	inactive: -2.39%
COc1ccc(OP(C)(=O)Nc2cccc(F)c2)cc1 (stereo not given)	inactive: 5.55%
O=[N+]([O-])c1cc([N+](=O)[O-])c(Nc2cccnc2)c([N+](=O)[O-])c1	inactive: 1.6%
O=[N+]([O-])c1ccc2c(c1)C=Nc1ccccc1O2	inactive: 7.29%
CC(C)(C)c1ccc(OP(C)(=O)Nc2ccc(SC(F)(F)F)cc2)cc1 (stereo not given)	inactive: 0.0658%
Cc1cccc(C)c1OP(C)(N)=O (stereo not given)	inactive: 9.94%
CP(=S)(Nn1cnnc1)Oc1ccccc1 (stereo not given)	inactive: -4.89%
CP(=O)(Nc1ccccc1Br)Oc1ccccc1 (stereo not given)	inactive: -3.81%
COc1ccccc1OP(C)(=O)Nc1ccccc1 (stereo not given)	inactive: -1.83%
CCOC(=O)c1ccc(NP(C)(=O)Oc2ccc(OC)cc2)cc1 (stereo not given)	inactive: 6.16%
O=[N+]([O-])c1cc([N+](=O)[O-])c(O)c([N+](=O)[O-])c1.c1ccc(Oc2ccncc2)cc1	inactive: -4.09%
CCOP(C)(=S)SCC(=O)NC(C)C(=O)O (stereo not given)	inactive: -1.02%
CP(=O)(Nc1ccccn1)Oc1ccc(Cl)cc1 (stereo not given)	inactive: 5.35%
Cc1cccc(C)c1OP(C)(=O)Nc1ccc(SC(F)(F)F)cc1 (stereo not given)	inactive: -7.6%
CP(=O)(Nc1ccc(SC(F)(F)F)cc1)Oc1ccc(Cl)cc1 (stereo not given)	inactive: -3.05%
CP(=O)(Oc1ccccc1)OC(c1ccccc1)C(F)(F)F (stereo not given)	inactive: 0.446%

Compound	activity change
CP(=O)(NC(=O)Nc1ccccc1)Oc1ccccc1 (stereo not given)	inactive: -3.69%
CCc1ccc(OP(C)(=O)N2CCN(c3ccc([N+](=O)[O-])cc3)CC2)cc1 (stereo not given)	inactive: 6.57%
Cc1cc(C)cc(OP(C)(=O)Nc2ccc(SC(F)(F)F)cc2)c1 (stereo not given)	inactive: -8.43%
O=[N+]([O-])c1cc([N+](=O)[O-])c(-c2cnn(-c3ccccc3)c2)c([N+](=O)[O-])c1	inactive: 0.672%
Cc1nc2ccc3ccccc3c2s1.O=[N+]([O-])c1cc([N+](=O)[O-])c(O)c([N+](=O)[O-])c1	inactive: -8.73%
O=[N+]([O-])c1cc([N+](=O)[O-])c(-n2nnc3ccccc32)c([N+](=O)[O-])c1	inactive: -19%
COc1ccccc1OP(C)(=O)Nc1c(C)cccc1C (stereo not given)	inactive: 15%
CN1CCCCC1COC(=O)C1(O)c2ccccc2CCc2ccccc21 (stereo not given)	inactive: 10.3%
CCCOc1ccc(NP(C)(=O)Oc2ccc(Cl)cc2)cc1 (stereo not given)	inactive: -3.05%
CP(=O)(Nc1ccc(SC(F)(F)F)cc1)Oc1ccccc1 (stereo not given)	inactive: 2.84%
CC1=C2N=C(C=C3N=C(C(C)=C4[N-][C@@](C)([C@@H]5N=C1[C@](C)(CCC(=O)NC[C@@H](C)OP(=O)([O-])O[C@H]1[C@@H](O)[C@@H](n6cnc7cc(C)c(C)cc76)O[C@@H]1CO)[C@H]5CC(N)=O)[C@@](C)(CC(N)=O)[C@@H]4CCC(N)=O)[C@@](C)(CC(N)=O)[C@@H]3CCC(N)=O)C(C)(C)[C@@H]2CCC(N)=O.[C-]#N.[Co+3]	inactive: 6.09%
O=[N+]([O-])c1cc([N+](=O)[O-])c(Nc2nnnn2CCO)c([N+](=O)[O-])c1	inactive: 5.61%
CC1=NCCc2c1[nH]c1ccccc21.O=[N+]([O-])c1cc([N+](=O)[O-])c(O)c([N+](=O)[O-])c1	inactive: 4.44%
Cc1ccc(C)c(NP(C)(=O)Oc2ccccc2)c1 (stereo not given)	inactive: 8.42%
Cc1cc(C)cc(OP(C)(=O)Nc2ccccn2)c1 (stereo not given)	inactive: -9.78%
CP(=O)(Nc1cccc(Br)c1)Oc1ccccc1 (stereo not given)	inactive: 2.16%
COc1ccccc1OP(C)(=O)Nc1cccc(Br)c1 (stereo not given)	inactive: -0.569%
CCOC(=O)c1ccc(NP(C)(=O)Oc2cc(C)cc(C)c2)cc1 (stereo not given)	inactive: -0.0439%
Cc1cc(C)cc(OP(C)(=O)Nc2ccc(C)cc2C)c1 (stereo not given)	inactive: -10.1%
